Source: patent US8926083B2, “Polymerizable ink composition, ink cartridge, and inkjet printer” (Ricoh Company, Ltd., priority 2012, dated 2015)

Experiment: Skin sensitization test according to Local Lymph Node Assay (LLNA) method, Stimulation Index (SI)
Conditions: LLNA method (OECD test guideline 429), SI less than 3 = no skin sensitization problem

In the case of “Ethylene oxide-modified bisphenol A diacrylate”, the SI value is reported as “Ethylene oxide-modified bisphenol A diacrylate (SI value = 1.2):”.

With “Polyethoxylated tetramethylol methane tetraacrylate” the SI value was “KOGYO SEIYAKU CO., LTD., SI Value = 1.7):”.

For “Propylene oxide modified neopentyl glycol diacrylate”, the SI value was “SI value: 3.7):”.
